Columns and labels:
[1] = tested on: MNU-induced urinary bladder carcinoma; assay: Second experiment (Table 5): histological assessment, MNU-induced bladder cancer; type: in vivo, rats; conditions: Table 5 experiment, intravesical
Procedure: The therapeutic effect in urinary bladder cancer in animals was assessed by histological evaluation of the tissues. The criteria for assessing normality of the tissues examined for all the experiments using the same animal model, that is, the experiments reported in Table 4, Table 5, Table 6-A, Table 6-B, Table 6-C and Table 6-D are: normal tissue, flat hyperplasia, papillary hyperplasia.
Flat hyperplasia and papillary hyperplasia are reactive changes of an inflammatory nature, though benign, and their occurrence in the experiments for assessment of new drugs in animals affected with cancer, indicates a reversal of the cancer process to non-cancerous stages. […]
[…] animals (n=50) were used in the experiment. The therapeutic effect was assessed through histological assessment of tissues, and the toxicological effect of the compounds, through assessment of the presence or absence of urinary bleeding also called hematuria. […]
For the histological examinations, sections (2 μm) of the tissue of the urinary bladder were cut using microtome Zeiss, mounted on microscope slides, and stained with hematoxylin-eosin (HE), for subsequent pathology assessment, quantification of cellular changes and comparison between control and treatment groups. […]

[2] = in vivo; cited from earlier work

For `CO[C@@]12[C@H](COC(N)=O)C3=C(C(=O)C(C)=C(N)C3=O)N1C[C@@H]1N[C@@H]12` [Mitomycin C], the “therapeutic effectiveness / efficacy” value [1] is given as 40% and the “Skin rash, (%) patients affected” value [2] is given as <10%.

— patent US20170173134A1 (priority 2011, published 2017)
